The experiment is described as follows: Acute administration: wet mash and food intake and 24 h body weight in lean mice (Example 3). It counts as in vivo, male C57BL/6J mice. The conditions noted are these: dosed alone; not as much of a reduction as with the combinations with bupropion. How it is done: The goal of this study was to investigate the effects of various ratios of bupropion:(R)-norfluoxetine on body weight and food and water intake in male C57BL/6J mice habituated to the daily presentation of a palatable wet mash diet. Rimonabant was used as a reference compound. Animals were maintained on normal-phase lighting. Test compounds were administered orally and measurements were made over the following 24 hours. All experiments included appropriate vehicle-treated control groups.
Sixty-two male C57BL/6J mice (weight range 20-25 g) were ordered from Harlan UK, Bicester, UK. The mice were individually housed in polypropylene cages at a temperature of 21±4° C. and 55%±20% humidity. […]
Typically an acute study was run each week with each study containing 60 animals. […] Animals were weighed and 2 h wet mash intake was calculated (to the nearest 0.1 g). […]
Drug administration occurred 60 minutes before the presentation of ‘wet mash’ which was at approximately 09:30 am. […] The mash was replaced with a fresh quantity of wet mash at the 4 hour time point. […] Wet mash was replaced with a known quantity of standard pellets at the 6 hour time point. […] Food and water intakes of the different groups of animals were measured concurrently. The animals were monitored at each reading and any overt drug-induced behavioural effects were recorded. […]

Among the data in patent US20090036426A1 (AMPLA Pharmaceuticals Inc., priority 2007, published 2009) are weight gain and wet mash intake values, retold here.

`NCC[C@@H](Oc1ccc(C(F)(F)F)cc1)c1ccccc1.O=C(O)C(O)C(O)C(=O)O` [(R) -Norfluoxetine (D)-tartrate, (R)-norfluoxetine (D)-tartrate]: the weight gain entry was “reduction” and the wet mash intake result was “reduction”.
